Measured values as given in US4563461A, “Selective method for blocking 5HT2 receptors” (Eli Lilly and Company, priority 1983, dated 1986).

Sequences of proteins named here, by UniProt entry; tags and fusion partners are left off.
UniProt P14842, whole entry: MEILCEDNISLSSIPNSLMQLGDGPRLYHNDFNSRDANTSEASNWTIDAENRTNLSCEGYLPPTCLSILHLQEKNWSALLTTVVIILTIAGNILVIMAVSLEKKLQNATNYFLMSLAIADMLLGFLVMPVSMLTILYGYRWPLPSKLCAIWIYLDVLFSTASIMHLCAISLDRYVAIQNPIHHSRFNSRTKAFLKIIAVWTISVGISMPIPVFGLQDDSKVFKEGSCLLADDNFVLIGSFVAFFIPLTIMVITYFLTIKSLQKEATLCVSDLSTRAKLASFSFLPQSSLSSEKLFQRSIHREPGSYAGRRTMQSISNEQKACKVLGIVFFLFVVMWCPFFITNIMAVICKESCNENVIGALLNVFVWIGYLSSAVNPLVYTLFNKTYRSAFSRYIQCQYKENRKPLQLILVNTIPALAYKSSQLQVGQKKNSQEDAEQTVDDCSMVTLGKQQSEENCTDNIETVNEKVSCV
UniProt P23944, whole entry: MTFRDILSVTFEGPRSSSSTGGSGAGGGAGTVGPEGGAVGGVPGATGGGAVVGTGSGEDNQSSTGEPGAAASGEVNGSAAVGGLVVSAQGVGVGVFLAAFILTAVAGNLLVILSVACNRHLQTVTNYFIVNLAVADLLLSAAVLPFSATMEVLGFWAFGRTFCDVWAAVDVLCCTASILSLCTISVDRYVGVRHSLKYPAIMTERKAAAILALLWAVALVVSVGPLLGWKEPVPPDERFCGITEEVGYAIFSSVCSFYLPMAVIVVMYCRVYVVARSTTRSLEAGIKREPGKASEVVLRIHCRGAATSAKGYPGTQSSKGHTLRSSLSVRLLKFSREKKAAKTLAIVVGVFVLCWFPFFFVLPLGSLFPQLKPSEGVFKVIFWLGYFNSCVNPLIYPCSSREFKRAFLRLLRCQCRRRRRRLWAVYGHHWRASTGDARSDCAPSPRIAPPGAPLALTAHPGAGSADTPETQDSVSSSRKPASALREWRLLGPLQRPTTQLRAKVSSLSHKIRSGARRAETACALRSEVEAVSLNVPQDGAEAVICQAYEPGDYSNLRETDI

What was measured:
5HT2 receptors = target: T1, 5HT2 receptors (Rattus norvegicus, UniProt P14842); assay: Antagonism of serotonin contraction in isolated rat jugular vein (apparent dissociation constant); format: cell-based; conditions: for Kb: rat jugular vein, agonist serotonin, antagonist incubated one hour, n in parentheses, read-out: 5HT2 -Log KB ± S.E. (converted)
T1 construct: their external jugular veins and thoracic aortas dissected free of connective tissue; from tissue; host or cells: external jugular vein of male Wistar rats
Protocol: (§1) The apparent dissociation constants (KB) are a measure of affinity for 5HT2 and alpha receptors and are expressed as the negative logarithm and are determined according to the following protocol.
(§2) Male Wistar rats (150-300 gram weight) were killed and their external jugular veins and thoracic aortas dissected free of connective tissue, cannulated in situ and placed in a modified Krebs' bicarbonate buffer in a suitable tissue bath. Two L-shaped 30-gauge stainless-steel hypodermic needles were inserted in each cannula and the dissected vessels gently pushed onto the needles. One needle was attached with thread to a stationary glass rod and the other to the transducer. [The procedure employed was that described by Hooker, Calkins and Fleisch, Blood Vessels, 14, 1, (1977) for use with circular smooth muscle preparations.]
(§3) The modified Krebs' bicarbonate buffer had the following makeup: (concentrations in millimoles): sodium chloride, 118.2; potassium chloride, 4.6; calcium chloride dihydrate, 1.6; potassium dihydrogenphosphate, 1.2; magnesium sulfate, 1.2; dextrose, 10.0; sodium bicarbonate, 24.8; and water q.s. to 1000 g. The tissue baths were maintained at 37° C. and were aerated with 95% oxygen-5% CO2. An initial optimum resting force of 1 and 4 g. was applied to the jugular vein and aorta, respectively. Isometric contractions were recorded as changes in grams of force on a Beckman Dynograph with Statham UC-3 transducers and microscale accessory attachment. Tissues were allowed to equilibrate 1 to 2 hours before exposure to drugs. […] Contraction to serotonin was evaluated in the jugular vein since this tissue produces marked responses to serotonin in the absence of alpha receptors--see Cohen and Wiley, J. Pharm. […] Alpha receptor antagonist activity was evaluated in the aorta.
Apparent antagonist dissociation constants were determined for each concentration of antagonist according to the following equation: [formula] wherein [B] is the concentration of the antagonist and the dose ratio is the ED50 of the agonist in the presence of the antagonist divided by the control ED50.

alpha receptors = target: T2, alpha receptors (Rattus norvegicus, UniProt P23944); assay: Antagonism of norepinephrine contraction in isolated rat aorta (apparent dissociation constant, dose ratio); format: cell-based; conditions: agonist norepinephrine, antagonist incubated one hour, n in parentheses, read-out: alpha -Log KB ± S.E. (converted)
T2 construct: their external jugular veins and thoracic aortas dissected free of connective tissue; from tissue; host or cells: thoracic aorta of male Wistar rats
Protocol: as §1
as §2, with “[The procedure employed was that described by Hooker, Calkins and Fleisch, Blood Vessels, 14, 1, (1977) for use with circular smooth muscle preparations.]” left out
as §3, with “The tissue baths were maintained at 37° C. and were aerated with 95% oxygen-5% CO2. An initial optimum resting force of 1 and 4 g. was applied to the jugular vein and aorta, respectively.” left out, “attachment.” for “attachment. Tissues were allowed to equilibrate 1 to 2 hours before exposure to drugs.”, “aorta. […]” for “aorta.”

| Structure (SMILES) | Kb (5HT2 receptors) [nM] | Kb (alpha receptors) [nM] | Ratio KB alpha / KB 5HT2 (5HT2 receptors; rat aorta KB over rat jugular vein KB) |
| --- | --- | --- | --- |
| O=C(CCCN1CCC2(CC1)C(=O)NCN2c1ccccc1)c1ccc(F)cc1 [Spiperone] | 0.0794 | 0.1 ± 0.0009 |  |
| O=c1n(CCCN2CCN(c3cccc(Cl)c3)CC2)nc2ccccn12 [Trazodone] | 2 |  | 79 |
